# According to PubChem BioAssay AID540303 (National Center for Advancing Translational Sciences (NCATS), 2011):
# This list holds what a sample rich in hits left over. Results filed as inconclusive are left out. Calls of active or inactive are those of the source. Calls come from the whole dose curve; as a rule, active = well fitted inhibition curve with a large enough effect; inconclusive = small, poorly fitted or top-dose-only effect; inactive = no such curve, though single readings can be large or run the other way; tested in mouse RAW 264.7 cells.
# Test: qHTS for Inhibitors of Cell Surface uPA Generation; note: nearly all actives have a fitted effect of over 55% in size
# Settings: cell surface uPA generation assay; at 38.3 µM (top of the series)
# Source text: The overall objective of this project is to perform a quantitative high throughput screen (qHTS) to identify novel compounds that inhibit the generation of cell surface urokinase activity. The urokinase plasminogen activator (uPA) is one of the two primary endogenous systems that mediate plasminogen activation into plasmin. Members of this system, including uPA and its receptor (uPAR), are overexpressed in several malignant tumors. This system plays a major role in adhesion, migration, invasion and metastasis of cancer cells. Small molecule inhibitors of the uPA system will serve as probes to understand the molecular mechanisms of the uPA cascade and better understanding the microenvironmental circumstances that facilitate the activation of plasminogen by uPA, and finally may provide novel candidate agents for anticancer drug therapy.
# […] Upon inhibition of the uPA activation cascade, the subsequent cell surface uPA activity-dependent translocation of LF into the cytoplasm is inhibited. […]
# Cultured RAW 264.7 were dispensed into 1536-well clear bottom, white walled tissue culture plates at a density of 4000 cells/well and were incubated overnight (12-16 h) at 37 C in a 5% CO2 incubator. […] Luminescence was detected using a Perkin Elmer ViewLuxtrade mark plate reader. […]
# 7.Reading plates by ViewLux with an exposure length of 5 seconds.
# % is set by controls: 0 for no effect and ±100 for the full control effect.
row,SMILES,"activity change, negative = inhibition"
1,COc1ccc(CC(C)NCC(O)c2ccc(O)c(NC=O)c2)cc1 (stereo unspecified),inactive: -12.9%
